Laboratory results: patent US20030134303A1, “Adenine nucleotide-binding protein-directed probes, and methods of their synthesis and use” (ActivX Biosciences, Inc,, priority 2001, published 2003)

Sequences of proteins named here, by UniProt entry; tags and fusion partners are left off. Residues count along the entry.
UniProt P06213, 1023-1298 limits assumed: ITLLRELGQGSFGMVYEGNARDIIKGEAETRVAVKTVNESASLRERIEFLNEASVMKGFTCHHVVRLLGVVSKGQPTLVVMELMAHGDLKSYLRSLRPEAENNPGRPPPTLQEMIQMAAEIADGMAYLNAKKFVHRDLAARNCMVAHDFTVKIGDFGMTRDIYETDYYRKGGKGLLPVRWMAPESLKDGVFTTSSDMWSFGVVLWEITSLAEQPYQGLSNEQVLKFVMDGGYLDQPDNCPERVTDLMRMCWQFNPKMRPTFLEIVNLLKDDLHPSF

Target: T1, GST-fusion protein of the insulin receptor kinase domain (GST-InsRK) (Homo sapiens, UniProt P06213)
T1 construct: GST-fusion protein of the insulin receptor kinase domain (GST-InsRK)
Assay type: binding
Conditions: pretreatment with 25 or 250 μM for 30 minutes, then (5) 25 μM for 30 minutes

fluorosulfonylbenzoic acid [FSBA]
inhibition of labeling of GST-InsRK by (5): inhibited
